Assay results reported in patent publication US20160256561A1, “PYRROLOBENZODIAZEPINE-ANTIBODY CONJUGATES” (priority 2013, published 2016).

How the values were obtained:
[1] = system: MDA-MB-468 cells; experiment: In vitro cytotoxicity of ADCs, Alamar blue assay, Her2-negative control; type: cell-based; conditions: 5 days incubation
[2] = system: Her2(+) BT-474 cells
Experimental: Cell culture medium was RPMI 1640 supplemented with L-Glutamine and 10% FBS. Cells were grown at 37° C., 5% CO2, in a humidified incubator.
The cell suspension was diluted to the required seeding density (generally 10^5/ml) and dispensed into 96-well flat bottomed plates. For Alamar blue assay, 100 μl/well was dispensed in black-well plates. For MTS assay, 50 μl/well was dispensed in clear-well plates. A stock solution (1 ml) of ADC (20 μg/ml) was made by dilution of filter-sterile ADC into cell culture medium. A set of 8×10-fold dilutions of stock ADC were made in a 24 well plate by serial transfer of 100 μl onto 900 μl of cell culture medium. Each ADC dilution (100 μl/well for Alamar blue, 50 μl/well for MTS) was dispensed into 4 replicate wells of the 96-well plate, containing cell suspension. Control wells received the same volume of culture medium only.

Substance	EC50 MDAMB468 [1] [mg/L]	cytotoxicity against BT-474 cells [2]
Trastuzumab-D	0.999	significant cytotoxicity
Trastuzumab-C	0.6510	significant cytotoxicity
